Values of other authors, collected in paper PMC7522491, “Gut microbiota impairs insulin clearance in obese mice” (Molecular Metabolism, 2020).

For insulin, the “insulin depleted from the blood by hepatic uptake and degradation during first-pass insulin clearance” value is given as 50–80%.
